Source: article PMC7367873, “Dissecting the sequence determinants for dephosphorylation by the catalytic subunits of phosphatases PP1 and PP2A” (Nature Communications, 2020)

What was measured:
GFP-14-3-3β = GFP-14-3-3β co-IP with LC-MS/MS, untreated GFP-14-3-3β versus GFP control (14-3-3 interactome); type: binding, human; details: GFP-14-3-3β co-IP LC-MS/MS; untreated vs GFP; student's t-test; label-free quantification, 3 replicates each
Description: (§1) HeLa Kyoto cells expressing transiently transfected pEGFP(C1)-14-3-3β or pEGFP(C1) control plasmid, were incubated with 20 nM Calyculin A (# 9902 S, Cell Signaling Technology) for 12 min. Cells were washed twice on ice with cold PBS and after addition of 500 µL lysis buffer (100 mM NaCl, 10 mM Tris, 0.1% IGEPAL, 1 mM EDTA, 1 mM EGTA, 20 nM Calyculin A, 1x cOmplete Mini protease inhibitor cocktail (Sigma), 1 mM DTT, 1 mM MnCl2) cells were scraped from plates, lysed by 10 pushes through an injection needle (21 G, BD) and the insoluble fraction was pelleted by centrifugation (10 min, 10^4 rcf, 4 °C). Supernatants were then subjected to incubation with 1 µM recombinant phosphatase or buffer for 1 h at 30 °C. […]
(§2) The samples were analyzed by LC-MS/MS on a Dionex Ultimate 3000 nano-HPLC coupled online to a Fusion Lumos Tribrid mass spectrometer (Thermo Fisher Scientific). […] Full scan MS1 spectra were recorded in the Orbitrap from 360 to 1300 m/z at a resolution of 60k (automatic gain control (AGC) target value of 4e5 charges, maximum injection time (maxIT) of 50 ms). Up to 20 peptide precursors were isolated (isolation window, 1.7 m/z; maximum injection time, 25 ms; and AGC value, 1e5), fragmented by high-energy collision-induced dissociation (HCD) using 30% normalized collision energy (NCE), and analyzed at a resolution of 15k in the Orbitrap. […]

[1] = test system: GFP-14-3-3β and its binding proteins; assay: GFP-14-3-3β co-IP with LC-MS/MS label-free quantification, untreated versus PP1c-treated; set-up: species or system human; details: GFP-14-3-3β co-IP LC-MS/MS; PP1 vs untreated; student's t-test; label-free quantification, 3 replicates each
Description: as §1, §2

B1: NUP93 (protein, UniProt Q8N1F7 1-819, looked up)
Nuclear pore complex protein …: MDTEGFGELLQQAEQLAAETEGISELPHVERNLQEIQQAGERLRSRTLTRTSQETADVKASVLLGSRGLDISHISQRLESLSAATTFEPLEPVKDTDIQGFLKNEKDNALLSAIEESRKRTFGMAEEYHRESMLVEWEQVKQRILHTLLASGEDALDFTQESEPSYISDVGPPGRSSLDNIEMAYARQIYIYNEKIVNGHLQPNLVDLCASVAELDDKSISDMWTMVKQMTDVLLTPATDALKNRSSVEVRMEFVRQALAYLEQSYKNYTLVTVFGNLHQAQLGGVPGTYQLVRSFLNIKLPAPLPGLQDGEVEGHPVWALIYYCMRCGDLLAASQVVNRAQHQLGEFKTWFQEYMNSKDRRLSPATENKLRLHYRRALRNNTDPYKRAVYCIIGRCDVTDNQSEVADKTEDYLWLKLNQVCFDDDGTSSPQDRLTLSQFQKQLLEDYGESHFTVNQQPFLYFQVLFLTAQFEAAVAFLFRMERLRCHAVHVALVLFELKLLLKSSGQSAQLLSHEPGDPPCLRRLNFVRLLMLYTRKFESTDPREALQYFYFLRDEKDSQGENMFLRCVSELVIESREFDMILGKLENDGSRKPGVIDKFTSDTKPIINKVASVAENKGLFEEAAKLYDLAKNADKVLELMNKLLSPVVPQISAPQSNKERLKNMALSIAERYRAQGISANKFVDSTFYLLLDLITFFDEYHSGHIDRAFDIIERLKLVPLNQESVEERVAAFRNFSDEIRHNLSEVLLATMNILFTQFKRLKGTSPSSSSRPQRVIEDRDSQLRSQARTLITFAGMIPYRTSGDTNARLVQMEVLMN
GFP-14-3-3β
  Difference (log2), untreated vs GFP: 0.79 log2
[1]
  Difference (log2), PP1 vs untreated: -0.4973 log2
